Reference: US9493451B2 (Bionomics Limited, priority 2011, dated 2016)

Chains of the proteins cited; added tags and fusions are not shown.
UniProt P22001, whole entry: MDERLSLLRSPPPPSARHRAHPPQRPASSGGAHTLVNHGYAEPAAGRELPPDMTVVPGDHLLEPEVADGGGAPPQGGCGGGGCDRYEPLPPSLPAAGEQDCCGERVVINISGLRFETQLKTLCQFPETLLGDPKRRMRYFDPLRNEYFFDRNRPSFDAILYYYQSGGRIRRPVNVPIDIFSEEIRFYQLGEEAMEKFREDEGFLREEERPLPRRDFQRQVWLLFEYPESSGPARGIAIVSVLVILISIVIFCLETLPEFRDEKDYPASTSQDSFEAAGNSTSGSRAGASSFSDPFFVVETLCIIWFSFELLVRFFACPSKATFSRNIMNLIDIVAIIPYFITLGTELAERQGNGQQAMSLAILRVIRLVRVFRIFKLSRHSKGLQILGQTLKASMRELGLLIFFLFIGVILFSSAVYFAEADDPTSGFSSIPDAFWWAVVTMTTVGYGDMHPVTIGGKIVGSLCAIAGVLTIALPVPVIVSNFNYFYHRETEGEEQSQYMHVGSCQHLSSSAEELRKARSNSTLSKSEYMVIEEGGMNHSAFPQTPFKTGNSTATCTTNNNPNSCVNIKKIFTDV

Target: Kv1.3 (Homo sapiens, UniProt P22001)
Assay: Electrophysiology: planar patch-clamp of Kv1.3 currents, IC50 from steady state current amplitude
Details: read-out: IC50 (Kv1.3 ephys steady state), Kv1.3 electrophysiology, results according to Method D1
Procedure: The inhibition data shown for the compounds of the list below was calculated using the steady state current amplitude at the end of the depolarising pulse in patch clamp evaluations (as described in the Biology Protocols: 1. Electrophysiology).
Kv1.x currents were measured in Kv1.3/CHO or Kv1.5/CHO cells using a planar electrode version (Nanion Technologies GMBH) of the patch-clamp technique. Whole-cell Kv1.x current transients were evoked by 500 ms depolarising voltage pulses to +40 mV from a holding potential of −80 mV applied at 10 s intervals for Kv1.5 and at 30 s intervals for Kv1.3 to allow adequate time for recovery from inactivation. Cells were continuously bathed in a buffered saline solution containing (mM): 160 NaCl, 4.5 KCl, 2 CaCl2, 1 MgCl2, 5 glucose, 10 HEPES, pH 7.4, 290-310 mOsm·Kg^−1. The internal (pipette) solution contained (mM): 10 NaCl, 70 KF, 75 KCl, 2 MgCl2, 10 HEPES, 10 EGTA, pH 7.2, 290-310 mOsm·Kg^−1. Series resistance compensation (60-80%) was applied to cells in which the peak current amplitude exceeded 2 nA.
Compound Preparation and Potency Assessment
Compounds were initially dissolved in DMSO to 10 mM. […] Compound IC50 values were determined by fitting the average normalised reduction of either the current integral or the steady state current amplitude at the end of the 500 ms depolarising pulse obtained at each compound concentration to the Hill equation. […]

In the case of `CC(C)Cc1noc(C(C)N(Cc2ccc(C(F)(F)F)nc2)C(=O)[C@@H]2C[C@H]2c2ccc(F)cc2)n1` (single isomer, unassigned), the IC50 is reported as 50 to 200 nM.
